These results are taken from US7632933B2, “Corticotropin releasing factor 2 receptor agonists” (priority 2002, dated 2009).

For one assay, the target named is T1, CRF2R (Homo sapiens, UniProt Q13324).
T1 sequence (Q13324 1-411): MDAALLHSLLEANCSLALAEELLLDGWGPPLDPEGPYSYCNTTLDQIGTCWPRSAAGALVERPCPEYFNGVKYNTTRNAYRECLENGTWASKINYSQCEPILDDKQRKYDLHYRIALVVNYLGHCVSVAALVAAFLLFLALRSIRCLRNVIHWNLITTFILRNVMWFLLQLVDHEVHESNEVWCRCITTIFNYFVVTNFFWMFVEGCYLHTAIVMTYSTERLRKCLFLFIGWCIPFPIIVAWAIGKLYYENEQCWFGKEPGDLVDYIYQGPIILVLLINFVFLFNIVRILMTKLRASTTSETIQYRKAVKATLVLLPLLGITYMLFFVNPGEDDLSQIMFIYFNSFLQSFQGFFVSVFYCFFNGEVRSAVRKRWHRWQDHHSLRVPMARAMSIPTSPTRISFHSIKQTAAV
The assay can be described thus: CRF2R agonist activity (EC50 and Emax), called comparative CRF binding. Format: cell-based. The following applies: CRF2R; for EC50: CRF2R EC50 (nM). The gist of the method:
(§1)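 Cells expressing only CRF1R or CRF2R (or recombinant receptor) were contacted with peptide or vehicle control. Receptor activation was measured as cAMP induction in cell lysates or via a cAMP-responsive-element reporter gene.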

In a further assay the target is T2, CRF1R (Homo sapiens, UniProt P34998).
T2 sequence (P34998 24-415): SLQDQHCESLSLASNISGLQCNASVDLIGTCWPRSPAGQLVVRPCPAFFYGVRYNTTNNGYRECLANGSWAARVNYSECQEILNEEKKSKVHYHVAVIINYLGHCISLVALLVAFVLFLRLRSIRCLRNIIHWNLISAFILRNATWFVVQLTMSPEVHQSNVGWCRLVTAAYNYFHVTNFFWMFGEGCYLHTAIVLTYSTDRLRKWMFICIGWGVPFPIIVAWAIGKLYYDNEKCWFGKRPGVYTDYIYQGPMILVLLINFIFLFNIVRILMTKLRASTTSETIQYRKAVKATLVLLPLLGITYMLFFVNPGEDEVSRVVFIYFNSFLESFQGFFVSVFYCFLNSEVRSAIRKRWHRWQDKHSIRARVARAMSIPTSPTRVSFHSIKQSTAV
In words: CRF1R agonist activity (EC50 and Emax), called comparative CRF binding. Format: cell-based. The settings on record: CRF1R; for EC50: CRF1R EC50 (nM). Summed up:
as §1

In the case of `CC[C@H](C)[C@H](NC(=O)[C@@H](NC(=O)[C@H](CC(=O)O)NC(=O)[C@H](CC(C)C)NC(=O)[C@H](CC(C)C)NC(=O)[C@H](CC(C)C)NC(=O)[C@H](CCCNC(=N)N)NC(=O)[C@H](CC(N)=O)NC(=O)[C@H](CC(N)=O)NC(=O)[C@H](C)NC(=O)[C@H](C)NC(=O)[C@H](CCC(N)=O)NC(=O)[C@H](CCC(N)=O)NC(=O)[C@H](CCCCN)NC(=O)[C@H](CCC(=O)O)NC(=O)[C@H](CCCCN)NC(=O)[C@H](CCC(=O)O)NC(=O)[C@H](CCC(N)=O)NC(=O)[C@H](CCCCN)NC(=O)[C@H](CCC(=O)O)NC(=O)[C@@H](NC(=O)[C@H](CCC(=O)O)NC(=O)[C@@H](NC(=O)[C@@H](NC(=O)[C@H](CCCCN)NC(=O)[C@H](CCCNC(=N)N)NC(=O)[C@H](CC(C)C)NC(=O)[C@H](CC(C)C)NC(=O)[C@@H](NC(=O)[C@@H](NC(=O)[C@@H]1CCCN1C(=O)[C@H](CC(C)C)NC(=O)[C@H](CC(=O)O)NC(=O)[C@@H](NC(=O)[C@H](CO)NC(=O)[C@@H](NC(=O)[C@@H]1CCCN1C(=O)[C@@H]1CCCN1C(=O)CNC(=O)[C@@H]1CCC(=O)N1)[C@@H](C)CC)[C@@H](C)CC)[C@@H](C)CC)[C@@H](C)CC)C(C)C)[C@@H](C)CC)[C@@H](C)CC)[C@@H](C)O)C(N)=O` [compound 297], the EC50 was not below 100 nM on CRF2R and not below 1000 nM on CRF1R.
With `CC[C@H](C)[C@H](NC(=O)[C@@H](NC(=O)[C@H](CC(=O)O)NC(=O)[C@H](CC(C)C)NC(=O)[C@H](CC(C)C)NC(=O)[C@H](CC(C)C)NC(=O)[C@H](CCCNC(=N)N)NC(=O)[C@H](CC(N)=O)NC(=O)[C@H](CC(N)=O)NC(=O)[C@H](C)NC(=O)[C@H](C)NC(=O)[C@H](CCC(N)=O)NC(=O)[C@H](CCC(N)=O)NC(=O)[C@H](CCCCN)NC(=O)[C@H](CCC(=O)O)NC(=O)[C@H](CCCCN)NC(=O)[C@H](CCC(=O)O)NC(=O)[C@H](CCC(N)=O)NC(=O)[C@H](CCCCN)NC(=O)[C@H](CCC(=O)O)NC(=O)[C@@H](NC(=O)[C@H](CCC(=O)O)NC(=O)[C@@H](NC(=O)[C@H](CCSC)NC(=O)[C@H](CCCCN)NC(=O)[C@H](CCCNC(=N)N)NC(=O)[C@H](CC(C)C)NC(=O)[C@H](CC(C)C)NC(=O)[C@H](C)NC(=O)[C@@H](NC(=O)[C@@H]1CCCN1C(=O)[C@H](CC(C)C)NC(=O)[C@H](CC(=O)O)NC(=O)[C@@H](NC(=O)[C@H](CO)NC(=O)[C@@H](NC(=O)[C@@H]1CCCN1C(=O)[C@@H]1CCCN1C(=O)CNC(=O)[C@@H]1CCC(=O)N1)[C@@H](C)CC)[C@@H](C)CC)[C@@H](C)O)[C@@H](C)CC)[C@@H](C)CC)[C@@H](C)O)C(N)=O` [compound 301], the EC50 on CRF2R turned out to be 50.4 nM. Further, at CRF1R, the EC50 was 690 nM and the “CRF1R (Emax %)” value was “(84.10) %”.
Regarding `CC[C@H](C)[C@H](NC(=O)[C@@H](NC(=O)[C@H](CC(=O)O)NC(=O)[C@H](CC(C)C)NC(=O)[C@H](CC(C)C)NC(=O)[C@H](CC(C)C)NC(=O)[C@H](CCCNC(=N)N)NC(=O)[C@H](CC(N)=O)NC(=O)[C@H](CC(N)=O)NC(=O)[C@H](C)NC(=O)[C@H](C)NC(=O)[C@H](CCC(N)=O)NC(=O)[C@H](CCC(N)=O)NC(=O)[C@H](CCCCN)NC(=O)[C@H](CCC(=O)O)NC(=O)[C@H](CCCCN)NC(=O)[C@H](CCC(=O)O)NC(=O)[C@H](CCC(N)=O)NC(=O)[C@H](CCCCN)NC(=O)[C@H](CCC(=O)O)NC(=O)[C@@H](NC(=O)[C@H](CCC(=O)O)NC(=O)[C@@H](NC(=O)[C@H](CCSC)NC(=O)[C@H](CCCCN)NC(=O)[C@H](CCCNC(=N)N)NC(=O)[C@H](CC(C)C)NC(=O)[C@H](CC(C)C)NC(=O)[C@H](C)NC(=O)[C@@H](NC(=O)[C@@H]1CCCN1C(=O)[C@H](CC(C)C)NC(=O)[C@H](CC(=O)O)NC(=O)[C@@H](NC(=O)[C@H](CO)NC(=O)[C@@H](NC(=O)[C@@H]1CCCN1C(=O)[C@@H]1CCCN1C(=O)CNC(=O)[C@@H]1CCC(=O)N1)[C@@H](C)CC)[C@@H](C)CC)[C@@H](C)CC)[C@@H](C)CC)[C@@H](C)CC)[C@@H](C)O)C(N)=O` [compound 306], the EC50 at CRF2R turned out to be 27.6 nM. Further, the “CRF2R (Emax %)” value at CRF2R (Emax) is reported as “(100.00) %”. On CRF1R, the EC50 was determined as 608 nM and the “CRF1R (Emax %)” value was “(97.65) %”.
